The text below walks through data of ChEMBL document CHEMBL5360537, “From lead to clinic: A review of the structural design of P2X7R antagonists” (Eur J Med Chem, 2023).

Sequences of proteins named here, by UniProt entry; tags and fusion partners are left off. A change or cut given only in a name is not applied to a line headed by its entry.
UniProt Q99572: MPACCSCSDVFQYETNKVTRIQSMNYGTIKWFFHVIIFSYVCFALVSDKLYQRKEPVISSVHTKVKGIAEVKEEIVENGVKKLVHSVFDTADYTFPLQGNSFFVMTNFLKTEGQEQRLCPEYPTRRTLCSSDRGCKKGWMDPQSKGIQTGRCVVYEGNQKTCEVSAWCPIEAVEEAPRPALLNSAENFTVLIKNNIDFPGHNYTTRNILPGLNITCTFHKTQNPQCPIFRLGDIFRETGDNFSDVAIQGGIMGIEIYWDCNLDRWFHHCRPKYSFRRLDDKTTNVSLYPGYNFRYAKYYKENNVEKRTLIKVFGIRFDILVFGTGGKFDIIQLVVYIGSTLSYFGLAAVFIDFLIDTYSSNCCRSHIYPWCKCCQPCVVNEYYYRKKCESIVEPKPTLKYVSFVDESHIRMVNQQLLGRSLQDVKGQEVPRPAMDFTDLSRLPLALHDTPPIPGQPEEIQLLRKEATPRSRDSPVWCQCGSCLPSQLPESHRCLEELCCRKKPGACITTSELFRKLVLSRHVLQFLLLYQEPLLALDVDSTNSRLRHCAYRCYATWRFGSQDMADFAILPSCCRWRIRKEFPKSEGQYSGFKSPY

The term IC50 denotes the concentration at which inhibition is half-maximal.

The target of this test is P2X purinoceptor 7 (Homo sapiens, UniProt Q99572). The experiment in a line: Antagonist activity at recombinant human P2X7 receptor expressed in 1321N1 cells measured after 30 mins by fluorescence based calcium flux assay. It is filed as cell-based. A general note: Calcium assays in cells follow changes in intracellular calcium, usually with a dye or a luminescent sensor.

With `C[C@@H]1c2nnn(-c3cnccn3)c2CCN1C(=O)c1cccc(C(F)(F)F)c1Cl`, the IC50 came to 13.4 nM.
